The record followed here is US5529989A (Arizona Board of Regents acting on behalf of Arizona State …, priority 1995, dated 1996).

The nature of this series: water solubility. It counts as physicochemical. The following applies: complexation with a range of functionalized β-cyclodextrins and a series of other approaches.

For `O=C1N[C@H]2[C@H](O)[C@H](O)[C@@H](O)[C@H](O)[C@@H]2c2cc3c(c(O)c21)OCO3` [pancratistatin], the “solubility improvement by complexation with functionalized β-cyclodextrins” value is given as “did not significantly improve solubility”.
